Amino acid sequences for entries named in this document (tags omitted). A change or cut given only in a name is not applied to a line headed by its entry.
UniProt P22303: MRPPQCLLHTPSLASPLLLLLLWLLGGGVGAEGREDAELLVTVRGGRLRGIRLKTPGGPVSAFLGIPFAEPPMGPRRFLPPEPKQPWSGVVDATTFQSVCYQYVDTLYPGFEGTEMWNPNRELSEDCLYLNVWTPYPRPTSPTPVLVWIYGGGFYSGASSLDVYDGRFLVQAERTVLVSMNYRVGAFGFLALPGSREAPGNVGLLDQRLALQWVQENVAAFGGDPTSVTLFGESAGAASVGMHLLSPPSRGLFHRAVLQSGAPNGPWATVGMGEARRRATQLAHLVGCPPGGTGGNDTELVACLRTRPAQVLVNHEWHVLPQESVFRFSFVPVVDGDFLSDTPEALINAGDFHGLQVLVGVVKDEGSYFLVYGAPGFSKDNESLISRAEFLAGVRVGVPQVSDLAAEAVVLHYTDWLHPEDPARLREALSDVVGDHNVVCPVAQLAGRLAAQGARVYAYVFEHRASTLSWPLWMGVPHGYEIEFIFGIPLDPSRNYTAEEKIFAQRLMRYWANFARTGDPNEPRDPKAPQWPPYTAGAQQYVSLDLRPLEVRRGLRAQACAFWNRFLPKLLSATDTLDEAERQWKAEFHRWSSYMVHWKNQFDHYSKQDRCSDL

According to ChEMBL document CHEMBL1125437, “Syntheses, resolution, and structure-activity relationships of potent acetylcholinesterase inhibitors: 8-carbaphysostigmine analogues” (J Med Chem, 1992):

Target: Acetylcholinesterase (Homo sapiens, UniProt P22303)
Experiment: In vitro inhibitory activity against human AchE (Acetylcholinesterase)

`CCN1CC[C@@]2(C)c3cc(OC(=O)NC(C)(C)C)ccc3CC12` (mixture of isomers) gave an IC50 of 12.5 µM.
